The chains behind the UniProt entries cited, without tags or fusion partners. A line that says so, or that is headed by a name, gives the form on record, which may keep a tag or linker. Residues count along the entry.
UniProt Q6SZW1, 28-724 with tags or gaps limits assumed: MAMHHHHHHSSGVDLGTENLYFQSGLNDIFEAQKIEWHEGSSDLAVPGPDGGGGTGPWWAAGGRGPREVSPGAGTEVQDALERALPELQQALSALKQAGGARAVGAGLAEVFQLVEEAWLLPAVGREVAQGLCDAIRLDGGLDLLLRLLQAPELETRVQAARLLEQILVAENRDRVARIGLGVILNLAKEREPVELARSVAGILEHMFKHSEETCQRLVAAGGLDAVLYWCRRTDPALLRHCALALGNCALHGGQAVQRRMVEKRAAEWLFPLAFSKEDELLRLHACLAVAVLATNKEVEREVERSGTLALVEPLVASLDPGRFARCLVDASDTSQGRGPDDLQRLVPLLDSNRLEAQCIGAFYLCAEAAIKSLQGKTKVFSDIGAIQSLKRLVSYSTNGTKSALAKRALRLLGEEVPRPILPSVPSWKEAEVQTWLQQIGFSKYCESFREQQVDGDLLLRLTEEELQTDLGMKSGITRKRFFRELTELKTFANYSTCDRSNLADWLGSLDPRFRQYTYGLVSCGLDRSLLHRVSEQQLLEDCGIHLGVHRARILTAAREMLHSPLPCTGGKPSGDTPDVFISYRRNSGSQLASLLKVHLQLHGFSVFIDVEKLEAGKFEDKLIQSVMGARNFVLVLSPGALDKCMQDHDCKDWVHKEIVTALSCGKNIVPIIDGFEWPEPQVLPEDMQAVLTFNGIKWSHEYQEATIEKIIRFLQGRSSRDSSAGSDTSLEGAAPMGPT

In patent publication US12435084B2, “Indazole derivatives as inhibitors of SARM1” (Disarm Therapeutics, Inc., priority 2020, dated 2025):

Target: SARM1 (Homo sapiens, UniProt Q6SZW1)
Assay: ARM-SAM-TIR SARM1 IC50 assay (NADase activity, NAD+ cleavage, RapidFire mass spectrometry)
Details: read-out: SARM1 IC50; ARM-SAM-TIR lysate 5 μg/mL, 2 h pre-incubation with compound at room temperature, 5 μM NAD+, 2 hr incubation

**Q.** How did the IC50 turn out when `O=C(NCc1ccc(Cl)nc1)c1cccc2c(-c3ccncc3)c[nH]c12` was run?
**A.** < 100 nM
